Target: FAP (Homo sapiens, UniProt Q12884)
Experiment: Fluorescence binding affinity study in FAP-transfected HLF1 cells
Conditions: read-out: binding affinity to FAP
Procedure: FAPL-FITC targets mouse FAP in mouse fibroblast cells. Fluorescence binding affinity study of FAPL_FITC in HLF-hFAP cells. (C) Binding of FAPL_FITC to TGFb induced mouse NIH-3T3 cell line.
In order to determine the conjugate's in vitro binding features such as binding affinity to FAP, and its bio distribution within FAP expressing cells, FAPL-FITC conjugate was incubated with a FAP transfected cell line HLF1 (human fibroblast cells), confocal microscopy and flow cytometry are used to observe the conjugate's specific targeting to FAP expressing cell line, and its subsequent endocytosis in the cell line. […] In addition, FAP ligand can recognize and target FAP with good specificity. FAPL_FITC conjugates are internalized upon receptor engagement.

Chains of the proteins cited; added tags and fusions are not shown.
UniProt Q12884, whole entry: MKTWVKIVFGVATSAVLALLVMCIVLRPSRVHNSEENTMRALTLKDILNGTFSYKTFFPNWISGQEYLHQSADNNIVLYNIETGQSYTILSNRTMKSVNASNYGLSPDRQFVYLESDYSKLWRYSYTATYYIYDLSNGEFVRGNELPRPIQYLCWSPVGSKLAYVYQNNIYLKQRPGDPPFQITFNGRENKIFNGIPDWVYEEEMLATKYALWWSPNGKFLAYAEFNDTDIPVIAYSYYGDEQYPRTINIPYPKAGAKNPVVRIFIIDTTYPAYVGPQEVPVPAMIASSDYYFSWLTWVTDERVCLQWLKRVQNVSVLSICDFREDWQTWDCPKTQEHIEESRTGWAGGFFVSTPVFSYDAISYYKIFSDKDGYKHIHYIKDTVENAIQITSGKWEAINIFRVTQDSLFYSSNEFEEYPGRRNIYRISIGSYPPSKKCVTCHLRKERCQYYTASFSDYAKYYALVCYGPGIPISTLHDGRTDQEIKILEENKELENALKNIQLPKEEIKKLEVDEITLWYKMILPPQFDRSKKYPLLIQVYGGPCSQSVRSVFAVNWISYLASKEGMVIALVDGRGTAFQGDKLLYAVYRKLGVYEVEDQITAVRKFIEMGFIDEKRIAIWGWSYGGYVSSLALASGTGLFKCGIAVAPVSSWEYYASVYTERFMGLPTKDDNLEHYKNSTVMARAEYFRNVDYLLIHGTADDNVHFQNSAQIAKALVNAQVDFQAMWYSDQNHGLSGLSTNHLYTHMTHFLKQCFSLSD

Kd: 3 nM
SMILES: C[C@H](NC(=O)c1ccnc(CNC(=O)CCC(=O)NC(CS)C(=O)O)c1)C(=O)N1CC(F)(F)C[C@H]1C#N (stereo partly shown)

Source: patent US11426472B2, “Fibroblast activation protein (FAP) targeted imaging and therapy in fibrosis” (Purdue Research Foundation, priority 2018, dated 2022)
